Compound activity deposited in PubChem by National Center for Advancing Translational Sciences (NCATS).
A selection: hits, their analogues and other compounds. The true share with any hit is near 2%.
Rango dissoc inh – inhibitors of RanGTP-induced Rango-importin beta complex dissociation. O95149+P62826. Biochemical FRET Rango-importin beta, RanGTP-induced dissociation. Potency, µM (highest dose often 46.1 µM), without a hit: at the top dose activity change, negative = inhibition. 340,000 tested, 0.071% active. AID 540253; calls by dose curve; further: % of control where 0% means no effect; nearly all actives have a fitted effect of over 45% in size
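Quantitative HTS using a FRET biosensor: 0.1 uM Rango, 0.25 uM importin beta, 0.6 uM Ran, 2 mM GTP, 0.2 uM RCC1 final, PBS with DTT, Tween-20 and BSA. Post-read taken 45 min after Ran addition.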
aSyn yeast inh – alpha-synuclein toxicity inhibition in yeast; 370,000 tested, 0.14% active; Yeast expressing alpha-synuclein, growth rescue, BacTiter-Glo, 24 h; Potency, µM (highest dose often 46.1 µM), for the others: at the highest dose growth rescue (activation), hits mostly activators; AID 652106; further: % of control where 0% means no effect; nearly all actives have a fitted effect of over 65% in size
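Screening used galactose-induced yeast with toxic alpha-synuclein levels, exposed to compound for 24 hr at 30 deg C. Cell growth, read with BacTiter-Glo luminescence, gave the measured signal.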
ASM inhibitor – inhibitors of human secretory acid sphingomyelinase; P17405; placental ASM, HMU-PC fluorogenic substrate, 60 min; Potency, µM (doses to about 57.5 µM), for the others: top-dose activity change, negative = inhibition, hits mostly inhibitors; 340,000 tested, 0.006% active; AID 504937
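Human placenta-derived ASM enzyme was preincubated with compound for 10 minutes at room temperature, then given fluorogenic substrate HMU-PC0 (9 uM final) for 60 minutes at 37 °C; a pH 10 stop preceded fluorescence reading at Ex 386/Em 447 nm.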
Abeta yeast res – A-beta toxicity reversal in yeast. yeast expressing A-beta42, growth rescue, OD600, 48 h; response scale: 0% DMSO, 100% iron-clioquinol control. Potency, µM (titrated, usually from 46.1 µM), hits mostly activators. 410,000 tested, 0.063% active; further: nearly all actives have a fitted effect of over 55% in size
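Growth rescue measured by 600 nm absorbance after 48 h yeast culture at 30 C with compound. Values normalized between DMSO and an equimolar ferric chloride plus clioquinol control.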
TDP-43 yeast inh – inhibitors of TDP-43 toxicity in yeast; TDP-43 expressing yeast growth rescue, BacTiter-Glo, 24 h; Potency, µM (doses to about 46.1 µM), inactives show top-dose growth rescue (activation), usual class: activators; 410,000 tested, 1.8% active; further: % of control where 0% means no effect; nearly all actives have a fitted effect of over 50% in size
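Luminescence from BacTiter-Glo reports growth of TDP-43-expressing yeast after 24 hr at 30 deg C with compound. Cells were raffinose-pregrown to mid-log, then seeded in galactose medium at OD600=0.02.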
Rango complex inh – inhibitors of Rango-importin beta complex formation | Q14974 | Rango CFP/YFP FRET sensor + importin beta, 45 min | Potency, µM (top dose mostly 92.2 µM), for inactives: at the highest dose inhibition of complex formation | 340,000 tested, 0.031% active | AID 540263; calls by dose curve;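 further: 0% = DMSO wells and 100% = buffer wells lacking importin beta; nearly all actives have a fitted effect of over 15% in size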
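Inhibition scored from the CFP 486 nm/YFP 530 nm FRET ratio 45 min after adding 0.125 microM importin beta to 50 nM Rango biosensor preincubated 5 min with compound (room temperature, PBS with DTT, Tween-20, BSA). No-importin wells as positive control.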
* marks the source's active call; other numbers are inactive results; i = inactive; u = inconclusive; x = no result given; [ ] = another dose, or the depositor's remark. Unless noted, the call rests on the fitted dose curve; in most records, active means well fitted curve in the direction sought with a large enough effect; inconclusive means small, poorly fitted or top-dose-only effect, or another doubt; inactive means no such curve, though single readings can be large; an effect the other way counts as inactive or inconclusive. Potency means the concentration at half of the fitted maximal effect.

Screens by letter: A = Rango dissoc inh; B = aSyn yeast inh; C = ASM inhibitor; D = Abeta yeast res; E = TDP-43 yeast inh; F = Rango complex inh
1. CC(=O)C(Sc1ncnc2sc3c(c12)CCCC3)C(C)=O
  A: 11% | B: u | C: -2% | D: u | E: 18µM* | F: -3%

2. Cc1cc(C)nc(Sc2ncnc3sc4c(c23)CCC4)n1
  A: -21% | B: 0% | C: 15% | D: i | E: 20µM* | F: 0%

3. O=C(CSc1ncnc2sc3c(c12)CCCC3)c1ccccc1
  A: 27% | B: -8% | C: -4% | D: i | E: -2% | F: 3%

4. Cc1ccc(CSc2ncc(Cl)c(C(=O)Nc3nnc(C)s3)n2)cc1
  A: x | B: x | C: x | D: i | E: 12% | F: x

5. O=S(=O)(c1ccccc1)n1ccc2ccccc21
  A: -1% | B: 1% | C: 0% | D: i | E: u | F: -1%

6. COc1ccc2ccn(S(=O)(=O)c3ccccc3)c2c1
  A: u | B: 0% | C: 0% | D: i | E: 20µM* | F: 1%

7. CCC(=O)Nc1nc(-c2ccccc2)ns1
  A: -1% | B: x | C: -6% | D: i | E: 8.9µM* | F: -1%

8. O=C(Nc1nc(-c2ccccc2)ns1)c1cccs1
  A: 4% | B: -19% | C: -17% | D: i | E: -1% | F: 0%

9. COc1ccccc1C(=O)Nc1nc(-c2ccccc2)ns1
  A: x | B: -23% | C: x | D: i | E: u | F: x

10. O=C(Nc1nc(-c2ccc(Br)cc2)ns1)c1ccccc1F
  A: x | B: x | C: x | D: i | E: 4% | F: x

11. CC(C)C(=O)Nc1nc(-c2ccccc2)ns1
  A: 3% | B: -15% | C: 1% | D: u | E: 13µM* | F: -2%

12. CC(=O)Nc1nc(-c2ccc(Cl)cc2)ns1
  A: -6% | B: -18% | C: -3% | D: i | E: 13µM* | F: -1%

13. Cc1nnc(SCCC(=O)Nc2nc(-c3ccccc3)ns2)s1
  A: 5% | B: x | C: -28% | D: i | E: u | F: -3%

14. CCCC(=O)Nc1nc(-c2ccccc2)ns1
  A: 2% | B: -24% | C: -1% | D: i | E: 16µM* | F: 0%

15. CCOc1ccc(C2C(C(N)=O)=C(C)Nc3nc(-c4ccc(OC)cc4)nn32)cc1 (stereo not given)
  A: x | B: x | C: x | D: i | E: 26%[9.22 µM] | F: x

16. CCNC(=O)c1ccc2c(c1)sc1nc(-c3cccc(OC)c3)cn12
  A: x | B: x | C: x | D: i | E: 16µM* | F: x

17. COc1cccc(-c2cn3c(n2)sc2cc(C(=O)NCc4ccccc4F)ccc23)c1
  A: x | B: x | C: x | D: i | E: u | F: x

18. CCc1ccc2occ(CC(=O)Nc3ccc(OC)c(Cl)c3)c2c1
  A: x | B: u | C: x | D: i | E: 16µM* | F: x

19. CCc1ccc2occ(CC(=O)Nc3ccccc3C(F)(F)F)c2c1
  A: x | B: x | C: x | D: i | E: -17% | F: x

20. CCc1ccc2occ(CC(=O)NCc3ccccc3)c2c1
  A: x | B: x | C: x | D: i | E: 11µM* | F: x

21. CCc1ccc2occ(CC(=O)Nc3nnc(C)s3)c2c1
  A: x | B: x | C: x | D: i | E: -2% | F: x

22. CCOC(=O)/C=C/C(=O)OCC(=O)Nc1ccc(OC)c(Cl)c1
  A: -16% | B: 3% | C: 3% | D: i | E: 35µM* | F: 0%

23. O=C(CN1C(=O)C(c2ccc(F)cc2)=NC12CCCCCC2)Nc1ccc(F)c(Cl)c1
  A: x | B: x | C: x | D: i | E: -9% | F: x

24. COc1ccc(OC)c(-c2nn(-c3ccccc3)cc2C(=O)N2CCc3ccccc3C2)c1
  A: -5% | B: -2%[1.84 µM] | C: -5% | D: i | E: 13µM* | F: 0%

25. COc1ccccc1-c1nn(-c2ccccc2)cc1C(=O)N1CCc2ccccc2C1
  A: 1% | B: u | C: -12% | D: i | E: 23% | F: 1%

26. Cc1cccc(CC(=O)NCCc2csc(-c3ccc(C(F)(F)F)cc3)n2)c1
  A: x | B: x | C: x | D: i | E: u | F: x

27. Cc1cccc(OCCSc2nnc(-c3ccoc3C)n2C)c1
  A: -11% | B: 4% | C: 3% | D: i | E: 18µM* | F: 5%

28. Cc1cccc(OCCSc2nncn2C)c1
  A: -13% | B: 3% | C: 0% | D: i | E: 11% | F: -5%

29. CC12CCC(C(=O)Nc3cccc(Cl)c3)(C(Br)C1=O)C2(C)C (stereo not given)
  A: 1% | B: 12% | C: -11% | D: i | E: 20µM* | F: 1%

30. CCN=C1S/C(=C\c2cn(CC)c3ccccc23)C(=O)N1CC
  A: -19% | B: 9% | C: -11% | D: i | E: 18µM* | F: 0%

31. COc1ccc(N(CC(=O)N2CCN(c3ccc(F)cc3)CC2)S(=O)(=O)c2c(C)nn(C)c2C)cc1
  A: x | B: x | C: x | D: i | E: 0% | F: x

32. O=C(COc1cc(F)ccc1[N+](=O)[O-])NCCCc1ccccc1
  A: 1% | B: 13% | C: -1% | D: i | E: 13µM* | F: -3%

33. CC(=O)c1ccc(Sc2nnnn2-c2ccccc2)c([N+](=O)[O-])c1
  A: -4% | B: -19% | C: 3% | D: i | E: 20µM* | F: -4%

34. CCOC(=O)c1[nH]c2c(c1Cc1ccccc1)C(=O)CC(c1ccccc1)C2 (stereo not given)
  A: x | B: x | C: x | D: i | E: 13µM* | F: x

35. CCOC(=O)c1[nH]c2c(c1Cc1ccccc1C)C(=O)CC(c1ccccc1)C2 (stereo not given)
  A: x | B: x | C: x | D: i | E: -3% | F: x

36. COc1ccc(NS(=O)(=O)c2ccc3ccccc3c2)c2ncccc12
  A: -2% | B: u | C: 0% | D: 4.5µM* | E: u | F: u

37. COc1ccccc1NS(=O)(=O)c1ccc2ccccc2c1
  A: 13% | B: 26% | C: -1% | D: i | E: 20µM* | F: 2%

38. O=S(=O)(Nc1cccc2ccccc12)c1ccc2ccccc2c1
  A: x | B: 20µM* | C: x | D: x | E: x | F: x

39. c1ccc(-c2cc(-c3ccccc3)n3ncnc3n2)cc1
  A: -22% | B: 2% | C: -2% | D: i | E: 0%[0.397 µM] | F: -2%

40. COc1ccc(-c2cc(-c3ccccc3)nc3ncnn23)cc1
  A: 11% | B: 9% | C: 60% | D: i | E: 14µM* | F: -2%

41. COc1cccc(-c2nc(CS(=O)(=O)CC(=O)Nc3c(C)cc(C)cc3C)c(C)o2)c1
  A: x | B: x | C: x | D: i | E: 9% | F: x

42. CCCNc1nc(Nc2ccc(C)cc2)nc(N2CCCC2)n1
  A: -20% | B: 1% | C: -8% | D: i | E: 11µM* | F: 46µM*

43. COc1ccc(-n2nc([N+](=O)[O-])c(=NCc3ccc4c(c3)OCO4)n2O)cc1
  A: 0% | B: 20% | C: -2% | D: i | E: 13µM* | F: -3%

44. COc1ccc(-n2nc([N+](=O)[O-])c(=NCCc3cccc(C)c3)n2O)cc1
  A: -9% | B: 5% | C: -2% | D: i | E: 13µM* | F: 0%

45. Cc1cccc(CCN=c2c([N+](=O)[O-])nn(-c3ccccc3)n2O)c1
  A: 1% | B: 1% | C: -9% | D: i | E: 16µM* | F: -3%

46. Cc1ccc(N=c2c([N+](=O)[O-])nn(-c3ccccc3)n2O)c(C)c1
  A: 2% | B: 5% | C: u | D: i | E: 23% | F: -5%

47. COc1ccc(CCN=c2c([N+](=O)[O-])nn(-c3cccc(C)c3)n2O)cc1OC
  A: -1% | B: -1% | C: -5% | D: i | E: 18µM* | F: 5%

48. Cc1ccc(N2C(=O)C(CC(=O)Nc3ccc(F)cc3)N(Cc3ccc4c(c3)OCO4)C2=O)cc1 (stereo not given)
  A: x | B: x | C: x | D: i | E: -3% | F: x

49. COC(=O)c1cccc(Nc2nn3c(=O)c4cc5c(cc4nc3s2)OCO5)c1
  A: x | B: x | C: x | D: i | E: 0% | F: x

50. N#Cc1cnc(SCCc2ccccc2)nc1N
  A: u | B: 1% | C: 11% | D: i | E: 13µM* | F: -1%

4 compounds from above, ordered by their value in Rango complex inh, descending.
| no. | Compound | Rango dissoc inh | ASM inhibitor | Rango complex inh |
| --- | --- | --- | --- | --- |
| 47 | COc1ccc(CCN=c2c([N+](=O)[O-])nn(-c3cccc(C)c3)n2O)cc1OC | -1% | -5% | 5% |
| 24 | COc1ccc(OC)c(-c2nn(-c3ccccc3)cc2C(=O)N2CCc3ccccc3C2)c1 | -5% | -5% | 0% |
| 43 | COc1ccc(-n2nc([N+](=O)[O-])c(=NCc3ccc4c(c3)OCO4)n2O)cc1 | 0% | -2% | -3% |
| 33 | CC(=O)c1ccc(Sc2nnnn2-c2ccccc2)c([N+](=O)[O-])c1 | -4% | 3% | -4% |
